According to PubChem BioAssay AID485317 (Broad Institute, 2010):
The entries are a selection whose mix differs from that of the whole data set. Active and inactive are the calls of the source.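 Rule for the calls: active = mean replicate inhibition above about 79%, with every replicate also reaching it (limit read from the data); inconclusive = only one of the two criteria met; inactive = mean below limit and not every replicate reaching it.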

Sequences of proteins named here, by UniProt entry; tags and fusion partners are left off. A change or cut given only in a name is not applied to a line headed by its entry.
UniProt P55789: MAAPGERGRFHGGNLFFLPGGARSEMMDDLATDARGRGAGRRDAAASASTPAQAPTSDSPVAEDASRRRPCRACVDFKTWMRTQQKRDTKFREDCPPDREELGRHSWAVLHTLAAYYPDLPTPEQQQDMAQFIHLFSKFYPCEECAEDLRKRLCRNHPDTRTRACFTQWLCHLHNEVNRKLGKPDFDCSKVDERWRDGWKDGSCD

Target: FAD-linked sulfhydryl oxidase ALR (Homo sapiens) (UniProt P55789)
Assay: inhibitors of human ALR sulfhydryl oxidase, primary screen, biochemical, H2O2 detection, HRP-luminol luminescence, single point (AID 485317)
Conditions: purified ALR, DTT oxidation, stronger effect = higher value, concentration not given here

SMILES	inhibition
Clc1ccc(Cl)c(NC2=NCC(CBr)S2)c1 (stereo not given)	active: 94.3%
CC(=O)Nc1ccc(Oc2c([N+](=O)[O-])cc([N+](=O)[O-])cc2[N+](=O)[O-])cc1	active: 99%
CCOc1ccc(C2=NCC(CBr)S2)cc1 (stereo not given)	active: 95.9%
CS(=O)(=O)c1cc([N+](=O)[O-])c2no[n+]([O-])c2c1	active: 95.1%
CC(C)/C=N\N=C(\N)N[N+](=O)[O-]	active: 100%
